# Data: PubChem BioAssay AID1233 (SRMLSC, 2008)
# The list shows a part of the results, in another mix than the full data. Measured potencies and affinities stand elsewhere. Calls of active or inactive are those of the source.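 The calls were made as follows: active = a dose-response curve fit returns a half-maximal inhibitory concentration, extrapolated values included; inactive = the fit returns no such concentration.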
# Biological target: HMG-CoA reductase [Enterococcus faecalis] (UniProt Q9FD70)
# Assay: inhibitors of E. faecalis class II HMGR, confirmation, biochemical, Enterococcus faecalis (AID 1233);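 also: 0% = full reaction carrier wells and 100% = background wells lacking mevalonate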
# Settings: purified E. faecalis HMGR, NADPH absorbance 340 nm kinetics; at 100 µM (top of the series)
compound,measurement,value
CC(C)NC(=O)NP(=O)(Oc1ccccc1)Oc1ccccc1,inhibition,inactive: -1.73%
